Our source for the EC50 values is patent US20230293711A1, “DISRUPTION OF CD28-SIALOSIDE LIGAND COMPLEXES TO ENHANCE T CELL ACTIVATION” (THE SCRIPPS RESEARCH INSTITUTE, priority 2020, published 2023).

Chains of the proteins cited; added tags and fusions are not shown. Residues count along the entry.
UniProt Q15116, 25-167 limits assumed: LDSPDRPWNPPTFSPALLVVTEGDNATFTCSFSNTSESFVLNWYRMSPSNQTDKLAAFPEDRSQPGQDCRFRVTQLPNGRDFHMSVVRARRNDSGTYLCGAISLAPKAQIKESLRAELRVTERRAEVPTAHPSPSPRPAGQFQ

This experiment concerns the target human PD-1 (human) (UniProt Q15116). The experiment is described as follows: ELISA (FIG. 11). Background: ELISA stands for enzyme-linked immunosorbent assay.

By EC50 is commonly meant the concentration giving half of the maximal effect. A high value points to a less potent agent. Turning to “anti-human PD-1 monoclonal antibody clone 409A11 (Keytruda/Pembrolizumab)”, the EC50 stood at 0.036 µg/mL.
